Protein sequences, listed by entry. Tags and fused reporters are not part of them. Lines headed by an entry give the natural chain unless they say otherwise; changes in a name come on top.
UniProt Q06187: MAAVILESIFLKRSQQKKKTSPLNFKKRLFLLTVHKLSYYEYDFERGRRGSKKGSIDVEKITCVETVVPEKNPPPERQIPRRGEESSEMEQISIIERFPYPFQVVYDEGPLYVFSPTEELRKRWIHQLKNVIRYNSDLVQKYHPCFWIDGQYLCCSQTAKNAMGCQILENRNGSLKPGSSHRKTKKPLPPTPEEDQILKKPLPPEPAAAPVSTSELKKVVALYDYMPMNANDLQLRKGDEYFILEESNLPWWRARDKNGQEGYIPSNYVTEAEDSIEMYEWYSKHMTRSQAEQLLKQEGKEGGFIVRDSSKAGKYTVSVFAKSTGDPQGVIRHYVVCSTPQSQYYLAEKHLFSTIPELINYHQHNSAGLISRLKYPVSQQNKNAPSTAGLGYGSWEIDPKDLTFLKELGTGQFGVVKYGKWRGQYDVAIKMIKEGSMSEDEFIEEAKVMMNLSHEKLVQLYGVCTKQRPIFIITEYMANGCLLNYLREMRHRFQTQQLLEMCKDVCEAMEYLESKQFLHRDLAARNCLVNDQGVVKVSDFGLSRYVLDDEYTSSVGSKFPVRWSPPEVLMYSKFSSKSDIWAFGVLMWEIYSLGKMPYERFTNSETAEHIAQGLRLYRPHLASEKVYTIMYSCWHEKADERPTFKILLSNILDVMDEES

According to patent publication US20150216865A1, “METHODS OF TREATING A BRUTON'S TYROSINE KINASE DISEASE OR DISORDER” (Celgene Avilomics Research, Inc., priority 2012, published 2015):

Columns and labels:
Btk [1] = target: T1, Btk (Homo sapiens, UniProt Q06187); assay: Immunoblot of Btk signaling in α-IgM stimulated Ramos cells; assay type: cell-based; conditions: anti-IgM, read-out: EC50, Btk autophosphorylation on Tyr223 (cellular Btk kinase inhibition)
Method: Following incubation, cells were centrifuged and resuspended in 100 μL of serum-free RPMI and BCR was stimulated with addition of 5 μg/mL α-human IgM. […] Membranes were scanned on a LiCor Odyssey Scanner using infrared fluorescence detection.

Btk [2] = target: T1, Btk; assay: Btk biochemical kinase assay; conditions: read-out: IC50apparent, Btk kinase activity
Method: Compound 1 is a potent, selective inhibitor of Btk. […] Because biochemical kinase assays may overestimate the potency of small molecule kinase inhibitors due to high ATP concentrations found in the cellular environment, cell activity for several of these closely related kinase family members was assessed.
Moreover, the specificity of the Btk target occupancy ELISA derives from the use of a detection monoclonal antibody that selectively recognizes Btk immobilized on the streptavidin substrate by the covalent probe and, therefore, this assay measures only Btk bound to the covalent probe (FIG. 2). By building a standard curve with known amounts of recombinant Btk protein bound to Compound 2, the amount of Btk in any sample can be precisely quantitated. Used in a competition assay, this probe detected free, uninhibited Btk and was excluded from interaction with Btk previously bonded by Compound 1 (FIG. 2). Results from this analysis can be reported in absolute values, such as the pg free Btk/ug total protein or in relative terms by normalization to control samples not exposed to inhibitor.

Btk [3] = target: T1, Btk; assay: Btk target site occupancy ELISA, Ramos cells; assay type: cell-based; conditions: one hour, n=4
Method: Btk Target Site Occupancy ELISA: An ELISA method for the detection of free uninhibited Btk in mouse, rat, dog, monkey, and human lysates was developed at Celgene Avilomics Research and a validation of this method in human B cell lysate was performed by a CLIA Certified laboratory (Cambridge Biomedical Laboratories, Boston, Mass.) The parameters that were assessed included: accuracy, linearity, dilution, precision (intra and inter-assay), stability, reference range, freeze-thaw cycles, reportable range, specificity, sensitivity, and carryover. […] Standards and samples were transferred to a streptavidin-coated 96-well ELISA plate and mixed while shaking for 1 h at room temperature. […] After wash, goat α-mouse-HRP (1:5000 dilution in PBS+0.05% Tween-20+0.5% BSA) was added and incubated for 1 h at room temperature. The ELISA was developed with addition of tetramethyl benzidine (TMB) followed by Stop Solution and read at OD 450 nm.

## C=CC(=O)Nc1cccc(Nc2nc(Nc3ccc(OCCOC)cc3)ncc2F)c1 [Compound 1, N-(3-(5-fluoro-2-(4-(2-methoxyethoxyl)phenylamino)pyrimidin-4-ylamino)phenyl)acrylamide]
Btk [1]
  EC50: 8 nM
Btk [2]
  IC50: < 0.5 nM
Btk [3]
  EC50: 6 nM
